We go through 1 compound from article PMC12527922, “Cocaine chemogenetics blunts drug-seeking by synthetic physiology” (Nature, 2025).

Chains of the proteins cited; added tags and fusions are not shown. Residues count along the entry.
UniProt P36544, 23-224 L141G/G175K/Y210F/Y217F: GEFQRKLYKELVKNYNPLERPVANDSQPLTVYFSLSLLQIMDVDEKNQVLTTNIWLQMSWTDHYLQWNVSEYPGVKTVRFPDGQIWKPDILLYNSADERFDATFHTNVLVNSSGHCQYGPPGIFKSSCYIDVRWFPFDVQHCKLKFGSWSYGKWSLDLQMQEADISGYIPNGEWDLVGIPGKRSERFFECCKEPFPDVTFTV

The target in this test is coca-5HT3 (α7(L141G,G175K,Y210F,Y217F)–5HT3) (Homo sapiens, UniProt P36544, G175K/L141G/Y210F/Y217F). As to the kind of experiment: Membrane potential assay, coca-5HT3 in HEK293. The settings on record: coca5HT3; [Nicotine] 1000 uM.

Consider `CN1CCC[C@H]1c1cccnc1` [nicotine], for which the “Response, dose-response replicates (DR 1-4)” value is given as 0.336.
